# The entries are a selection whose mix differs from that of the whole data set. Some tests of the compounds listed are not included; inactive here does not mean inactive elsewhere. Activity calls are given as the source filed them.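 The calls were made as follows: active = inhibition above 20% in each of the two mixture wells holding the compound; inactive = inhibition of 20% or less in either well.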
# By UniProt entry, the sequences of proteins in these tests, tags left out. Residues count along the entry.
# UniProt P08311, 21-244 limits assumed: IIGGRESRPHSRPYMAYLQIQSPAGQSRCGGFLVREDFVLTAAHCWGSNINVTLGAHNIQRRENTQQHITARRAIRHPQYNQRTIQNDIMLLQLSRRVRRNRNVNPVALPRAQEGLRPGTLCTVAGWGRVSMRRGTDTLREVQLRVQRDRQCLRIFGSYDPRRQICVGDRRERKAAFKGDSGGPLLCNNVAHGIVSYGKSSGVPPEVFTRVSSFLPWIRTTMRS
# Biological target: Cathepsin G (Homo sapiens) (UniProt P08311)
# Experiment: blockers of neutrophil cathepsin G protease – biochemical, pooled compound mixtures, AMC fluorescence, primary screen (AID 581);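 also: 0% = enzyme control without mixture and 100% = blank lacking enzyme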
# Conditions: purified enzyme, AMC-tetrapeptide fluorescence, active compounds read high, screened at 5 µM (by protocol)
row,SMILES,inhibition
1,O=C(OC1CN2CCC1CC2)C(CO)(c1ccccc1)c1ccccc1 (configuration not stated),inactive: 4.8%
2,CN(C)c1cccc(C(=O)NCC2(N(C)C)CCCCC2)c1,inactive: 10.7%

# From PubChem BioAssay AID581 (PCMD, 2007)
